Reference: PubChem BioAssay AID651719 (The Scripps Research Institute Molecular Screening Center, 2012)
The entries are a selection whose mix differs from that of the whole data set. The source made the active and inactive calls.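 Rule for the calls: active = inhibition above the screen-wide average plus 3 SD (cut at about 13% in these data); inactive = the rest.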

The chains behind the UniProt entries cited, without tags or fusion partners. Where a name states a change or a piece, a line headed by the entry shows the natural chain unless it says otherwise.
UniProt O60755: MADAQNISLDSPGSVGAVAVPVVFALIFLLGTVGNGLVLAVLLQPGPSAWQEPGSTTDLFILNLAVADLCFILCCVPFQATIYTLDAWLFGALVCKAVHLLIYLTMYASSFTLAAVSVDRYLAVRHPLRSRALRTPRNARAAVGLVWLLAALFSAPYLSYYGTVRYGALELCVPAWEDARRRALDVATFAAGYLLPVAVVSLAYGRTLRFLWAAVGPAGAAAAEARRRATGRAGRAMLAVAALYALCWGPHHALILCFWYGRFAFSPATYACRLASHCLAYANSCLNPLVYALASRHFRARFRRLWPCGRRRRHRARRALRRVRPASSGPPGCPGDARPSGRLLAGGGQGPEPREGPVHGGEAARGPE

biological target: Galanin receptor type 3 (Homo sapiens) (UniProt O60755); experiment: GalR3 antagonists in HEK293 cells, primary screen, cell-based, fluorescence readout (AID 651719); conditions: HEK293 GalR3-CNG cAMP membrane potential fluorescence; at 3 µM; active compounds read high; galR3 body fused to GalR1 C-terminus;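 note: forskolin and galanin both at EC90 stimulate the cells; cAMP rise reported by CNG channel membrane potential dye signal; 0% = forskolin plus galanin with DMSO and 100% = forskolin alone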

Row | SMILES | inhibition
1 | CCCCOc1ccc(C(=O)NCC2(N3CCCCC3)CCCCC2)cc1OC | inactive: -6.44%
2 | Cc1cc(SC(NC(=O)c2ccccc2)C(Cl)(Cl)Cl)nc(C(C)C)n1 (stereo unspecified) | inactive: -1.51%
3 | COP(=O)(OC)N1CC1c1ccccc1 (stereo unspecified) | inactive: -5.59%
4 | CC1CCNP(=O)(N(CCCl)CCCl)O1 (stereo unspecified) | inactive: 6.76%
5 | O=C(O)C(O)c1ccc(N(CCCl)CCCl)cc1 (stereo unspecified) | inactive: -6.78%
6 | CCOC(=O)Nc1ccc([As](=O)(O)O)c(O)c1 | inactive: -4.13%
7 | O=[N+]([O-])c1ccc(Nc2ccc(Oc3ccc([N+](=O)[O-])cc3[N+](=O)[O-])cc2)c([N+](=O)[O-])c1 | inactive: -8.11%
8 | Cc1cc(SC(NC=O)C(Cl)(Cl)Cl)ncn1 (stereo unspecified) | inactive: -4.88%
9 | O=P(Nc1ccccn1)(c1cccc2ccccc12)c1cccc2ccccc12 | inactive: -4.02%
10 | CCOC(=O)Nc1cccc([As](=O)(O)O)c1 | inactive: -8.65%
11 | O=C(COc1ccccc1)OC1CN2CCC1CC2 (stereo unspecified) | inactive: -0.14%
12 | O=C(Nc1ccncc1[N+](=O)[O-])c1ccc([N+](=O)[O-])cc1[N+](=O)[O-] | inactive: -5.25%
13 | O=C(O)C(=O)c1ccc(N(CCCl)CCCl)cc1 | inactive: 1.2%
14 | COP1(=S)c2c(C)nn(CCC#N)c2N=C(c2ccc(F)cc2)N1C (stereo unspecified) | inactive: -2.73%
15 | COC(=O)C1(C)COP(=O)(N2CCCC2)OC1 (stereo unspecified) | inactive: -3.04%
16 | CCC(C)N(CC(C)C)C(=S)SC(NC(C)=O)C(Cl)(Cl)Cl (stereo unspecified) | inactive: -4.88%
17 | CCOC(=O)c1ccc(NC(=O)C(C)(CCl)SC)cc1 (stereo unspecified) | inactive: -3.94%
18 | O=C(OC1CN2CCC1CC2)c1cccc([N+](=O)[O-])c1 (stereo unspecified) | inactive: -10%
19 | COc1ccc2nc(NP(=O)(c3ccccc3)c3ccccc3)sc2c1 | inactive: -4.12%
20 | COc1cc(I)ccc1[As](=O)(O)O | inactive: -1.89%
21 | O=P1(N(CCCl)CCCl)Nc2ccccc2N1 | inactive: -5.15%
22 | O=P1(N(CCCl)CCCl)OCCCN1CCCl (stereo unspecified) | inactive: -5.26%
23 | O=C(OC1CN2CCC1CC2)C12CC3CC(CC(C3)C1)C2 (stereo unspecified) | inactive: -3.34%
24 | Cc1cc(=O)[nH]c(N[N+](=O)[O-])n1 | inactive: 1.21%
25 | Cc1c2c(nc3ccccc13)SC(C(Cl)Cl)C2 (stereo unspecified) | inactive: -5.84%
26 | COc1ccc(N/C(=N/P(=O)(N2CCOCC2)N2CCOCC2)N2CCOCC2)cc1 | inactive: -4.61%

Row | SMILES | inhibition
27 | O=[N+]([O-])c1cc(Oc2ccc([N+](=O)[O-])cc2C(F)(F)F)cc([N+](=O)[O-])c1 | inactive: -3.96%
28 | Cc1ccc2nc3c(c(C)c2c1)CC(C(Cl)Cl)S3 (stereo unspecified) | inactive: 0.17%
29 | Cc1ccc(OP(=O)(Nc2ccc([N+](=O)[O-])cn2)Oc2ccc(C)cc2)cc1 | inactive: -5.2%
30 | [N-]=[N+]=NC1CCCCC1NC(=O)c1cc([N+](=O)[O-])cc([N+](=O)[O-])c1 (stereo unspecified) | inactive: -7%
31 | O=[As](O)(c1ccc(O)cc1)c1ccccc1O | inactive: -3.4%
32 | C[As](=O)(O)c1cccc(C(=O)O)c1 | inactive: -9.09%
33 | COc1cc(C(=O)NCC2(N3CCOCC3)CCCCC2)ccc1OCC(C)C | inactive: -0.47%
34 | O=[N+]([O-])c1ccc(-c2cc([N+](=O)[O-])c(O)c([N+](=O)[O-])c2)cc1 | inactive: -5.04%
35 | O=C(OC1CN2CCC1CC2)c1cccc2[nH]cnc12 (stereo unspecified) | inactive: 5.37%
36 | CCN(CC)C(=S)SC(NC=O)C(Cl)(Cl)Cl (stereo unspecified) | inactive: 0.64%
37 | CC(C)NC(=O)NP(=O)(Oc1ccccc1)Oc1ccccc1 | inactive: -1.44%
38 | CC(C)c1ccc(OP(=O)(Nc2ccccn2)Oc2ccccc2F)cc1 (stereo unspecified) | inactive: 3.98%
39 | COC(=O)C1(C)COP(=O)(N2CCCCCC2)OC1 (stereo unspecified) | inactive: -4.95%
40 | ClCCSc1nnc(-c2cccnc2)o1 | inactive: -2.87%
41 | O=C(O)COc1ccc([As](=O)(O)O)cc1[N+](=O)[O-] | inactive: -9.26%
42 | Nc1ccccc1[As](=O)(O)c1ccccc1 | inactive: -3.9%
43 | CCOP1(=S)c2c(C)nn(CCC#N)c2N=C(c2ccccc2F)N1C (stereo unspecified) | inactive: -1.19%
44 | O=P(Nc1nccs1)(Oc1ccccc1)Oc1ccccc1 | inactive: -2%
45 | CN(C)C(=O)c1cc([N+](=O)[O-])cc2c1-c1c(cc([N+](=O)[O-])cc1[N+](=O)[O-])C2=O | inactive: -6.99%
46 | O=[N+]([O-])c1ccc2c(c1)nnn2O | inactive: -7.48%
47 | N#CCCN(C(=O)COC(=O)C(O)(c1ccccc1)c1ccccc1)c1ccc(F)cc1 | inactive: -2.39%
48 | CN(C(=O)Cc1ccccc1)[C@@H]1CC[C@]2(CCCO2)C[C@H]1N1CCCC1 | inactive: -1.84%
49 | CCOP1(=S)c2c(C)nn(CCC#N)c2N=C(c2ccc(F)cc2)N1C (stereo unspecified) | inactive: -6.52%
50 | NC(=O)Nc1ccc([As](=O)(O)O)cc1 | inactive: -3.91%
51 | O=[As](O)(c1cccc(O)c1)c1cccc(O)c1 | inactive: -4.9%
52 | Cc1cccc(OCC(=O)OC2CN3CCC2CC3)c1 (stereo unspecified) | inactive: -0.88%

Row | SMILES | inhibition
53 | COc1cc(C(=O)NCC2(N3CCOCC3)CCCCC2)cc(Cl)c1OC(C)C | inactive: -0.8%
54 | O=[As](O)(O)c1cccnc1 | inactive: 3.78%
55 | CS(=O)(=O)c1ccc(Cl)c(NC(=O)COC(=O)C(O)(c2ccccc2)c2ccccc2)c1 | inactive: -6.23%
56 | O=C(OC1CN2CCC1CC2)c1ccc(Cl)cc1 (stereo unspecified) | inactive: -4.51%
57 | COc1cc(C2NCCC3(OCCO3)C2(C)C)cc(OC)c1OC (stereo unspecified) | inactive: -9.7%
58 | CCOP(=O)(Nc1cccc2ccccc12)OCC | inactive: -5.85%
59 | CCCOP(=S)(Nc1nc(N)cc(=O)[nH]1)OCCC | inactive: 5.54%
60 | Nc1cccc2c([As](=O)(O)O)cccc12 | inactive: -11.6%
61 | Cc1ccc(NCCc2c([N+](=O)[O-])cc([N+](=O)[O-])cc2[N+](=O)[O-])cc1 | inactive: -5.28%
62 | Clc1n[nH]nc1-c1nn[nH][15n]1 | inactive: -0.78%
63 | O=P1(N(CCCl)CCCl)NCCC(C(F)(F)F)O1 (stereo unspecified) | inactive: -2.17%
64 | CC(C)(C)C(=O)NC(Sc1ncccn1)C(Cl)(Cl)Cl (stereo unspecified) | inactive: 9.16%
65 | CN(CCCl)Cc1cc(Cl)c(NC2=NCCN2)c(Cl)c1 | inactive: -2.19%
66 | CCOP(=O)(Nc1ccc(C)cn1)OCC | inactive: -7.07%
67 | CCC1=CC2Cc3nc4ccc(Cl)cc4c(N)c3C(C1)C2 (stereo unspecified) | inactive: -20.2%
68 | O=P1(Nc2ccccn2)COc2ccccc2OC1 | inactive: -4.32%
69 | CCOP(=O)(NC(=NC(C)c1ccccc1)NC(C)c1ccccc1)OCC (stereo unspecified) | inactive: -4.83%
70 | CC(C)/C=N\N=C(\N)N[N+](=O)[O-] | inactive: -0.11%
71 | CN(C(=O)Cc1ccc(Cl)c(Cl)c1)C1CCCC[C@@H]1N1CCCC1 (stereo partly specified) | inactive: -6.47%
72 | COc1ccccc1CNC(=O)COC(=O)C(O)(c1ccccc1)c1ccccc1 | inactive: -5.52%
73 | O=C(/C=C/c1ccccc1)OC1CN2CCC1CC2 (stereo unspecified) | inactive: -4.82%
74 | CCCC1OP(=O)(Nc2ccccc2)OCC1CC (stereo unspecified) | inactive: -6.32%
75 | CN(C)C1(CNC(=O)c2ccc(S(C)(=O)=O)cc2)CCCCC1 | inactive: -3.04%
76 | Cc1nn(-c2ccccc2)c2c1P(=O)(N1CCOCC1)N(C)C(c1ccccc1)=N2 (stereo unspecified) | inactive: -8.35%
77 | Cc1ccc(C(=O)OC2CN3CCC2CC3)cc1 (stereo unspecified) | inactive: -10.5%
78 | CC1CCC(C(C)C)C(OP(=O)(Nc2ccccn2)c2ccccc2)C1 (stereo unspecified) | inactive: -12.6%

Row | SMILES | inhibition
79 | NS(=O)(=O)c1cccc(NC(=O)COC(=O)C(O)(c2ccccc2)c2ccccc2)c1 | inactive: -3.15%
80 | O=P1(Nc2ccc(Br)cn2)COc2ccccc2OC1 | inactive: -5.25%
81 | O=[As](O)(c1cccs1)c1cccs1 | inactive: -10.7%
82 | Cc1ccc(OCC(=O)OC2CN3CCC2CC3)cc1 (stereo unspecified) | inactive: -3.15%
83 | Nc1cccc([As](=O)(O)c2ccccc2)c1 | inactive: -0.55%
84 | O=P1(Nc2ncccn2)COc2ccccc2OC1 | inactive: -2.37%
85 | Cc1ccc(S(=O)(=O)N(CCCN)CCCc2c(C)nc(N)[nH]c2=O)cc1 | inactive: 0.47%
86 | O=P(Nc1nc2ccccc2s1)(c1ccccc1)c1ccccc1 | inactive: -1.67%
87 | C[C@H]1OP(=O)(Oc2ccccc2)[C@H](O)[C@H](O)[C@H]1N=[N+]=[N-] (stereo partly specified) | inactive: -2.89%
88 | Nc1ccc(CCCCOc2ccccc2)cc1 | inactive: -7.62%
89 | COc1ccc(N)c([N+](=O)[O-])c1[N+](=O)[O-] | inactive: -4.33%
90 | CN(C)C1(CNC(=O)c2ccc(Cl)c(S(N)(=O)=O)c2)CCCCC1 | inactive: -11.2%
91 | O=P(Nc1ccccn1)(c1ccc(Br)cc1)c1ccc(Br)cc1 | inactive: -3.62%
92 | C/C(N)=N\P(=O)(OCc1ccccc1)OCc1ccccc1 | inactive: -7.29%
93 | Nc1ccc([As](=O)(O)c2ccc([N+](=O)[O-])cc2)cc1 | inactive: -0.14%
94 | C(Cc1nn[nH]n1)Cc1nn[nH]n1 | inactive: -5.45%
95 | O=C(OC1CN2CCC1CC2)c1cccc(Cl)c1 (stereo unspecified) | inactive: -3.25%
96 | O=[N+]([O-])c1ncn(CCn2cnc([N+](=O)[O-])n2)n1 | inactive: -3.28%
97 | CC(=O)NC(SC(=S)N(C)C)C(Cl)(Cl)Cl (stereo unspecified) | inactive: -0.94%
98 | O=[As](O)(c1ccccc1)c1ccc(O)cc1 | inactive: -4.6%
99 | c1nnnn1CCn1cnnn1 | inactive: -2.22%
100 | O=P(Nc1nccs1)(c1ccccc1)c1ccccc1 | inactive: -1.62%
101 | CC(C)C(=O)NC(Sc1ccccc1)C(Cl)(Cl)Cl (stereo unspecified) | inactive: -1.85%
